Measured affinities in a library of Ab-14 light chain variants

All variants were tested on one target, the spike HR2 peptide PDVDLGDISGINAS (SARS-CoV-2).

The variants keep the heavy chain, the linker and the frameworks of Ab-14 (scFv order VH, a (GGGGS)3 linker, VL).
VH: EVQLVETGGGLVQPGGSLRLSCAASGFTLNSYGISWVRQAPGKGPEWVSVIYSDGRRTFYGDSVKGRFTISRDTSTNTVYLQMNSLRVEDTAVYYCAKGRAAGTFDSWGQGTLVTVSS
VL: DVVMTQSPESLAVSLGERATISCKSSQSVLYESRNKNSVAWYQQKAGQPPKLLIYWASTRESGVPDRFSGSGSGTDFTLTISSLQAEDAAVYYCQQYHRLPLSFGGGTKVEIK

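The parent was found by panning a naive human phage display library on the peptide. The variants were designed computationally from a first round of random CDR variants and then made and measured. Several design methods are mixed in this list. The assay is AlphaSeq: two haploid yeast populations carry antibody and antigen on their surface. Pairs that bind mate more often; barcode pairs of the diploids are counted by sequencing. The ratio of observed to expected reads was calibrated, replicate by replicate, on BCL2-family standards whose Kd was known from biolayer interferometry. Each pool was mated in six replicate cultures.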

The parent's light chain CDRs are KSSQSVLYESRNKNSVA, WASTRES, QQYHRLPLS; each variant's own CDRs replace them letter for letter. The read-out is the apparent dissociation constant on a log10 scale (nM): the lower, the stronger. The mean shown is taken over the replicates in which the pair was detected. A pair that was not seen in any replicate is written "nd"; this usually means weak binding, but a binder can also be missed. In the paper, a design with two or fewer of six values counts as a poor binder. As a blank, each scFv also met three strains without target: over all light chain designs, 4% of these pairings were detected, typically at 2.64 and seldom below 1.59. The range of this assay differs from that of the first round, and the authors advise against merging the two.

| mean log10 Kd (nM) | detected | CDR-L1 | CDR-L2 | CDR-L3 |
|---|---|---|---|---|
| -0.04 | 6 of 6 | KMKQSVDGLDRNWNSVA | QASTREM | QQYHRLPLS |
| 0.51 | 6 of 6 | KSSQSVLNQSRNKNSVA | DASTRES | QQYHRLPLS |
| 1.11 | 5 of 6 | KVYWGVDYGDRNKNSVA | HASRRES | QQYHRLPLS |
| 0.64 | 6 of 6 | KMSISYLGEKRNKNSVA | EASTRES | QQYHRLPLS |
| 0.03 | 6 of 6 | KLRDQADGWTRNERNIA | DADHRGA | QQYSHLPLC |
| 1.91 | 4 of 6 | KSSQSVLYESRNFNSVA | GASTRES | GQYHDLPLS |
| nd | 0 of 6 | SMQSDQIGGNQQTNSIA | GESVTDM | QHYERLPLS |
| nd | 0 of 6 | KSSQSVLYESRNHESVA | WGSTRES | KQYHRLPLS |
| 2.53 | 3 of 6 | KLGQESYNSTYAMDAVA | DQNTAYE | QHYSRLPLT |
| -0.64 | 6 of 6 | KLPQSELYESRNKNSVA | DASTRES | QQYHRLPLS |
| 2.84 | 4 of 6 | KIGMQVTYQSMVNNAIA | QMETREE | QQYHRLPLS |
| 1.57 | 6 of 6 | NLGGEDANDNRGMMAVA | DVSTVGE | QHYNRLPLS |
| 0.46 | 6 of 6 | KLQQAVLYESRNKNSVA | QASTRSD | QCYHRLPLS |
| 0.73 | 6 of 6 | KLVNFMNRGTHHTSNIA | DAQNRTD | QQYARLPLA |
| 1.71 | 6 of 6 | KSSQSVAYESRNKNSVA | WASTRET | QQYHVLPLS |
| 1.44 | 6 of 6 | KISASVNYELVNGQSVA | QMSTREE | QQYDRLPLS |
| 0.34 | 6 of 6 | TIGQSSHETSRNKNSVA | HASTRED | QQYDRLPLS |
| nd | 0 of 6 | KSSHSVLYESRNQNSHA | WASTRES | QQYHRLPLS |
| nd | 0 of 6 | KSRQSVWYESRNKNSVA | WASTRES | VQYHRLPLS |
| 0.71 | 5 of 6 | SLYEMNYELSGKTHSVA | DNSTRGD | QQYFRLPLE |
| -0.46 | 6 of 6 | KLAQSELYESRNKNSVA | EASTRES | QQYHRLPLS |
| 1.82 | 6 of 6 | FSLQSVLLESRNFNSVA | HASTRED | QQYHRLPLS |
| nd | 0 of 6 | KLNEDVGNHTHDQKNVA | DESRVDR | QQYAHLPLS |
| 1.10 | 6 of 6 | KITTTMRFEQKQKNNIA | EVTTRSK | QQYYRLPLA |
| 1.42 | 6 of 6 | HITYGMYVSGRYKSNIA | QAETRIK | QQYDRLPLI |
| 1.29 | 5 of 6 | HMSALTLGGMRQRNSVA | QMTTREN | QQYDRLPLT |
| 3.17 | 1 of 6 | KVSDPMVEWYANQSAVA | EHAEAQH | QQYDRLPLS |
| 0.52 | 6 of 6 | KLSQSWLYLSRNMNAVA | EASQRLS | QDYHRLPLS |
| 0.84 | 6 of 6 | KLYMSTGYESRNSDSIA | DNSTRGR | QQYHRLPLS |
| -0.25 | 6 of 6 | KVQQSHLYESRNKNSVA | NASYRES | QQYHRLPLS |
| -0.04 | 6 of 6 | KLQQSWLYESRNKNSVA | NASTRES | QQYHRLPLS |
| 1.15 | 6 of 6 | QLYAVQDMTSKNSNNVA | EQSTREN | QQYHRLPLS |
| 1.29 | 3 of 6 | KSSQSQLYESRNKNSVA | GASTRES | QQYHRLTLS |
| -0.37 | 6 of 6 | KLSQQVLYESRNKNSVA | EASTRES | QQYHRLPLS |
| -0.23 | 6 of 6 | KLSQSMEYEDRNKNSVA | HASTREQ | QQYHRLPLM |
| nd | 0 of 6 | KSSQQVLYESRNKNSVA | WASTRES | QQYHRAPLS |
| 0.26 | 6 of 6 | KIAQSVAMTSHHINSVA | QSTTREE | QQYNRLPLS |
| 1.02 | 1 of 6 | SLAYTQHFGQKGGKAVA | EVAMRCQ | QQYFRLPLG |
| 0.33 | 6 of 6 | KLEQSDLYESRNKNAVA | NASTRES | QQYHRLPLS |
| 1.29 | 5 of 6 | MVTQMAMTGMKNKRSVA | NAETRED | QQYHRLPLI |
| 0.82 | 6 of 6 | KLDQWVEYESRNKNSVA | SASQRFS | QQYHRLPLS |
| 0.45 | 6 of 6 | KSSQGVLYESRNKNSVA | GASTREQ | QAYHRLPLS |
| 1.68 | 1 of 6 | TISGIMDQMSHSKNNVA | EVSMRFD | QQYFRLPLE |
| -0.16 | 6 of 6 | KLSQSELYESRNKNSVA | EASTREK | QQYHRLPLS |
| 0.05 | 6 of 6 | KLSQSVLYESRNKNSVA | NASTRLQ | QQYHRLPLS |
| 0.37 | 6 of 6 | KLDEKNRWNGMANKNVA | ASNTRVD | QQYHRLPLI |
| 1.35 | 6 of 6 | NISHFMDVTAKHNNNVA | EMTMRES | QQYHHLPLS |
| 1.16 | 6 of 6 | KLSVMSSYLSVNKNSVA | EMSTREN | QQYDRLPLS |
| 0.99 | 6 of 6 | KSSQSVLYESFNKNSVA | NASTRES | QQYHRLPLS |
| 0.31 | 6 of 6 | KFSQSVLYGERDGNSVA | NASQRLS | QQYHRLPLS |
| 1.74 | 6 of 6 | HVSMLTLGGLKNRNSVA | QMTTREN | QQYDRLPLA |
| 0.35 | 6 of 6 | KQDFSCPGESRNKNSVA | QASTRMS | QQYHRLPLS |
| -0.15 | 6 of 6 | KLSQSVLYESRNPNSVA | DASTRES | QQYHRLPLS |
| 2.14 | 3 of 6 | KLDLFIPSQKEWDASIA | GATLRPT | QDYARLPLS |
| 0.49 | 6 of 6 | HISQMVMYGTCNKNNVA | QVSTREE | QQYHRLPLS |
| -0.02 | 6 of 6 | HLGQSTDLESVHKNSIA | DLMTRES | QQYHRLPLS |

Repeated from above, the 7 best binders with a signal in all replicates:

| CDR-L1 | CDR-L2 | CDR-L3 | mean log10 Kd (nM) | detected |
|---|---|---|---|---|
| KLPQSELYESRNKNSVA | DASTRES | QQYHRLPLS | -0.64 | 6 of 6 |
| KLAQSELYESRNKNSVA | EASTRES | QQYHRLPLS | -0.46 | 6 of 6 |
| KLSQQVLYESRNKNSVA | EASTRES | QQYHRLPLS | -0.37 | 6 of 6 |
| KVQQSHLYESRNKNSVA | NASYRES | QQYHRLPLS | -0.25 | 6 of 6 |
| KLSQSMEYEDRNKNSVA | HASTREQ | QQYHRLPLM | -0.23 | 6 of 6 |
| KLSQSELYESRNKNSVA | EASTREK | QQYHRLPLS | -0.16 | 6 of 6 |
| KLSQSVLYESRNPNSVA | DASTRES | QQYHRLPLS | -0.15 | 6 of 6 |

Values reported by Li et al. 2023, doi:10.1038/s41467-023-39022-2 (FLAb copy).